Biological target: DPP-IV (UniProt P27487)
Assay: In-vitro DPP-IV assay (cleavage of pNA from Gly-Pro-pNA)
Details: tested form: trifluoroacetate; for % Inhibition: DPP-IV inhibition at 100 nM; for IC50: DPP-IV

Chains of the proteins cited; added tags and fusions are not shown.
UniProt P27487, whole entry: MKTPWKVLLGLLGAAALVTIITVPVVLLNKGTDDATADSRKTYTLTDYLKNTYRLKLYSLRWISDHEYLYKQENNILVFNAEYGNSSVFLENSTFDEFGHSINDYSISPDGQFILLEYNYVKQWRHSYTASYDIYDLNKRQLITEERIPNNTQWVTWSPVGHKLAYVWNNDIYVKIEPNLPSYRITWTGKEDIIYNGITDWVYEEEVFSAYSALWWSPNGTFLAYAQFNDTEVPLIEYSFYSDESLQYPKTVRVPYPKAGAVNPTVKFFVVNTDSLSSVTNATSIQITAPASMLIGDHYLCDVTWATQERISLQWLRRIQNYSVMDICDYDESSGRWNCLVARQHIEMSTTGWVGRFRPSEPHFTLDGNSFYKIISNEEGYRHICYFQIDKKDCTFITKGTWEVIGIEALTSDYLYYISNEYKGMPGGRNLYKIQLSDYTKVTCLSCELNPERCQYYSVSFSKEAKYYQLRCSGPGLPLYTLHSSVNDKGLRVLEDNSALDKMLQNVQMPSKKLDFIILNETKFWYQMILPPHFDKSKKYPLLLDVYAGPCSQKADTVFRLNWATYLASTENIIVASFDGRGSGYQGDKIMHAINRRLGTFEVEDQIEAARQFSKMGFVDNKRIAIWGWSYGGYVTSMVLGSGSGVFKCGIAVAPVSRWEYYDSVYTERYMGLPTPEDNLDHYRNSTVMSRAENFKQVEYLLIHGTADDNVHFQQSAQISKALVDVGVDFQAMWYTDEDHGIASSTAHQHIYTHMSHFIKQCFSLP

With `N[C@@H](CC(=O)N1CC(=O)N(CC(F)(F)F)c2ccccc2C1)Cc1cc(F)c(F)cc1F` the “% Inhibition” value was “Y (Y: 50-100% DPP-IV inhibition at 100 nM)” and the IC50 was 1 to 100 nM.

In the case of `CCOC(=O)CN1C(=O)CN(C(=O)C[C@H](N)Cc2cc(F)c(F)cc2F)Cc2ccccc21`, the “% Inhibition” value is reported as “Y (Y: 50-100% DPP-IV inhibition at 100 nM)” and the IC50 is reported as 1 to 100 nM.

For `CCN(CC)C(=O)c1ncn2c1CN(C(=O)C[C@H](N)Cc1cc(F)c(F)cc1F)Cc1ccccc1-2`, the “% Inhibition” value was “Y (Y: 50-100% DPP-IV inhibition at 100 nM)” and the IC50 was 1 to 100 nM.

In the case of `N[C@@H](CC(=O)N1Cc2ccccc2-n2cnnc2C1)Cc1cc(F)c(F)cc1F`, the “% Inhibition” value is reported as “Y (Y: 50-100% DPP-IV inhibition at 100 nM)” and the IC50 is reported as 1 to 100 nM.

In the case of `Cc1nnc2n1-c1ccccc1CN(C(=O)C[C@H](N)Cc1cc(F)c(F)cc1F)C2`, the “% Inhibition” value is reported as “Y (Y: 50-100% DPP-IV inhibition at 100 nM)” and the IC50 is reported as 1 to 100 nM.

With `N[C@@H](CC(=O)N1Cc2ccccc2-n2cnc(C(=O)N3CCOCC3)c2C1)Cc1cc(F)c(F)cc1F` the “% Inhibition” value was “Y (Y: 50-100% DPP-IV inhibition at 100 nM)” and the IC50 was 1 to 100 nM.

For `N[C@@H](CC(=O)N1CC(=O)N(CC(=O)N2CCC(F)(F)C2)c2ccccc2C1)Cc1cc(F)c(F)cc1F`, the “% Inhibition” value was “Y (Y: 50-100% DPP-IV inhibition at 100 nM)” and the IC50 was 1 to 100 nM.

Reference: patent publication US8455479B2, “Heterocyclic compounds” (Panacea Biotec Limited, priority 2008, dated 2013)
